In US10961163B2, “Compositions and methods useful for enhancing the microbial conversion of nitrate into ammonium” (The Regents of the University of California, priority 2016, dated 2021):

System: microbial enrichment cultures
Experiment: Inhibitory potency (IC50) of inorganic compounds against growth and ammonium production, microbial enrichment with yeast extract
Type: cell-based
Conditions: microbial enrichment with complex carbon source (yeast extract), serial dilutions of inorganic compound; higher ratio favors ammonium production

With Sodium Fluorophosphate as the substance, how does the “NH4^+ IC50/growth IC50 ratio” value read?
Its value is 1.0647.
